According to PMC3947011 (ACS chemical biology, 2013):

Test system: human red blood cells (hRBCs)
Experiment: Hemolysis assay
Type: cell-based
Conditions: concentration causing 50% hemolysis

## Pexiganan
hRBCs, 37 °C, 1 h
  Hemolysis HC50: 120 µg/mL
Value in parentheses
  Hemolysis HC50: 45 µM
